In patent US12704493B2 (priority 2020, dated 2026):

Test system: electroactive microorganisms of the biosensor anode

Substance: chlorine
- recovery of biosensor voltage after return to clean tap water (after contamination was cleared, switched back to tap water): restored to a constant plateau
- change of open circuit voltage of the biosensor (chlorine raised from 0.03 mg/L to 3 mg/L over 4 hours in tap water): decreased
